This is a selection; strong and weak results do not stand in their true shares. Active and inactive are the calls of the source. Rule as the data show it: active = inhibition above about 22% (passing the limit was not always enough); inactive = the rest.

Protein sequences, listed by entry. Tags and fused reporters are not part of them.
UniProt P35372, whole entry, looked up: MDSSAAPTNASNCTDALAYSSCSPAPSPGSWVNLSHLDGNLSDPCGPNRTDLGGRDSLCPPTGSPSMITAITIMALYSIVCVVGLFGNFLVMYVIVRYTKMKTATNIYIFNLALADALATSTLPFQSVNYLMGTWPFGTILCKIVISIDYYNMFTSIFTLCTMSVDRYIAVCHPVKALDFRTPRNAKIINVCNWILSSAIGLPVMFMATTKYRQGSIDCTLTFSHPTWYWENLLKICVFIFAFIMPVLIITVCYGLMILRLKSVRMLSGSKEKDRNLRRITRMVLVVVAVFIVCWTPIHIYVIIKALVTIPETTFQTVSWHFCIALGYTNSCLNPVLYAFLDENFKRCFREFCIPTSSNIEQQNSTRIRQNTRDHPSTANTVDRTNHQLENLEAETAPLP
UniProt P41143, whole entry, looked up: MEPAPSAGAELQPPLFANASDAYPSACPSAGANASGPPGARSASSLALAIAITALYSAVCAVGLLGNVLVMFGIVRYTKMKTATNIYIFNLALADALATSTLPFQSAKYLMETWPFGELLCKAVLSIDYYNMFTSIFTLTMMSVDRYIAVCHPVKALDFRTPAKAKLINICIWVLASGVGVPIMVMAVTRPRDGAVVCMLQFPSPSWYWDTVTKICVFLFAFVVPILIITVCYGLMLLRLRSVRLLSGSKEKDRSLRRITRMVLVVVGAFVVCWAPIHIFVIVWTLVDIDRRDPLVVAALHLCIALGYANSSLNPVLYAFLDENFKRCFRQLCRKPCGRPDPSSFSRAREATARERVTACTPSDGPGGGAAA

The target of the assay is Mu-type opioid receptor (Homo sapiens) + Delta-type opioid receptor (Homo sapiens) (UniProt P35372+P41143). Briefly: OPRM1-OPRD1 heterodimer inverse agonism – cell-based, luminescence, primary screen (AID 504357).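 Also: 0% = cells with DMSO and 100% = wells without cells with DMSO.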 The settings on record: cell-based MOR-DOR heterodimer luminescence, at 9.3 µM, hits give high values.
Usually inhibition stands for the change of the read-out against control, counted positive when it falls. `CSc1ccccc1NC(=O)Cn1c(-c2cscn2)nc2ccccc21`: the inhibition is inactive: 16.9%. The figure for `O=C(Cn1cnc2ccccc21)N/N=C/c1ccccn1` is inactive: 18.4%; for `O=C(Cn1cnc2c(OCc3ccccc3)ncnc21)NCc1nc2ccccc2[nH]1` it is inactive: 20.6%; for `O=C(OC1CN2CCC1CC2)c1cccc(Cl)c1` (configuration not stated) it is inactive: 11.1%. With `CC(C)C[C@H](NC(=O)N1CCn2c1nc1ccccc12)C(=O)N[C@@H](Cc1ccccc1)C(=O)O`, the inhibition is inactive: 0.92%. The figure for `COc1ccc(N2C(=O)CC(N3CCC(n4c(=O)[nH]c5ccccc54)CC3)C2=O)cc1` (configuration not stated) is inactive: 12.5%; for `CCn1c(N)[n+](CC(=O)Nc2ccc(SC(F)F)cc2)c2ccccc21` it is inactive: -229%. As for `O=C(Nc1cccc(F)c1)N1CCC(n2c(=O)[nH]c3ccccc32)CC1`, the inhibition is inactive: -3.35%. As for `COc1cc(C(=O)OCCn2c(=O)c3c(ncn3CCN(C)C)n(C)c2=O)cc(OC)c1OC`, the figure is inactive: 5.36%. As for `COCCOC(=O)C1=C(C)N=C2SCCC(=O)N2C1/C=C/c1ccccc1` (configuration not stated), the figure is inactive: -1.72%; as for `Cc1ccc2c(c1)C1CN(C)CCC1N2C(=O)/C=C/c1ccc2c(c1)OCO2` (configuration not stated), inactive: 2.63%. As for `O=C(Cn1c(CC(=O)N2CCCC2)nc2ccccc21)NCc1ccccc1`, the figure is inactive: -3.77%. As to `COc1ccc(CCNC(=O)Cn2cnc3c2c(=O)n(C)c(=O)n3C)cc1OC`, the inhibition is inactive: 7.56%. `Cn1c(=O)[nH]c(=O)c2c1nc(CN(Cc1ccccc1)Cc1ccccc1)n2CCN1CCOCC1`: the inhibition was inactive: 14.6%.

As for `C(Cc1nn[nH]n1)Cc1nn[nH]n1`, the inhibition was inactive: 15.7%. As for `O=C(Nc1ccccc1Cl)N1CCn2c(nc3ccccc32)C1`, the figure is inactive: 7.34%; as for `CSCC[C@H](NC(=O)N1CCn2c1nc1ccccc12)C(=O)NCc1ccc(F)cc1`, inactive: 9.99%; as for `N=c1n(CCO)c2ccccc2n1CCN1CCCCC1`, inactive: 3.28%. For the compound `Nc1ccc([As](=O)(O)c2ccc([N+](=O)[O-])cc2)cc1`, the inhibition is inactive: 5.86%. As for `COc1ccc(C(=O)N2CCn3c2nc2ccccc23)cc1`, the figure is inactive: 8.52%.

Regarding `CC(=O)Nc1ccc2c(c1)nc1n2CCN(C(C)c2ccccc2)C1` (configuration not stated), the inhibition is inactive: 18.4%. Regarding `CN(C)C(=O)Cn1c(SCC(=O)NC2CCCCC2)nc2ccccc21`, the inhibition is inactive: -0.38%. For `CCN(CC)CCn1c(NC(=O)c2ccccc2O)nc2ccccc21`, the inhibition was inactive: -31.2%. As for `Cc1nc2ccc(S(=O)(=O)NC(C(=O)N3CCn4c3nc3ccccc34)C(C)C)cc2s1` (configuration not stated), the figure is inactive: 10.4%; as for `COCC(C)NC(=O)Cn1c(SCc2ccccc2)nc2ccccc21` (configuration not stated), inactive: 12.2%. The figure for `CS(=O)(=O)Cc1nc2ccccc2n1CC(=O)Nc1cccc(S(=O)(=O)N2CCCC2)c1` is inactive: 11.3%; for `CCOc1ccc(NC(=O)N2CCC(n3c(=O)[nH]c4ccccc43)CC2)cc1` it is inactive: -2.64%.

As for `O=C(Cn1c(=O)n(CC2CS2)c2ccccc21)N1CCCCC1` (configuration not stated), the inhibition was inactive: 10.5%. The figure for `Cc1nc2cc(C(F)(F)F)ccc2n1C1CCN(Cc2nnnn2Cc2cccs2)CC1` is inactive: 1.29%. As for `O=C(Cn1cnc2c(NCc3ccccc3)ncnc21)NCc1ccccc1`, the inhibition is inactive: 18.4%. As for `CC1CCCC(NC(=O)Cn2c(Cl)nc3c2c(=O)n(C)c(=O)n3C)C1C` (configuration not stated), the figure is inactive: 13.8%; as for `O=[As](O)(c1ccccc1)c1ccc(O)cc1`, inactive: 11.4%. As for `CCn1nccc1C(=O)Nc1nc2ccccc2n1CCN1CCCCC1`, the figure is inactive: 8.48%; as for `N=c1n(CCN2CCOCC2)c2ccccc2n1CC(=O)c1ccc(Cl)c(Cl)c1`, inactive: -8.93%. The figure for `CCOC(=O)C1=C(Cn2cnc3ccccc32)NC(=O)NC1c1cc(C)ccc1C` (configuration not stated) is inactive: 11.4%; for `O=[N+]([O-])c1ccc(O)c(/C=N/Nc2ccc([N+](=O)[O-])cc2[N+](=O)[O-])c1` it is inactive: -9.53%. As for `O=[N+]([O-])c1ncn(CCn2cnc([N+](=O)[O-])n2)n1`, the inhibition was inactive: 0.14%. Regarding `CC(=O)NC(SC(=S)N(C)C)C(Cl)(Cl)Cl` (configuration not stated), the inhibition is inactive: 1.96%. The figure for `O=C(Cn1cnc2c(OCc3ccccc3)ncnc21)NCc1ccc2[nH]ccc2c1` is inactive: 13.4%. With `CCC(=O)Nc1cccc(C(=O)/C=C/c2ccccc2)c1`, the inhibition is inactive: -16.7%. As for `c1nnnn1CCn1cnnn1`, the figure is inactive: 9.06%; as for `CCN(CC)C(=O)CSc1nc2ccccc2n1CC(=O)N1CCN(c2ccccc2OC)CC1`, inactive: -4.56%. `O=C(CCCCCNC(=O)N1CCn2c1nc1ccccc12)NCc1ccccc1`: the inhibition is inactive: 19.9%.

On to `CCNC(=O)Cn1cnc2c1c(=O)n(C)c(=O)n2C`, for which the inhibition is inactive: -9.57%.

As to `CSc1nc2ccccc2n1CC(=O)Nc1cc(C(F)(F)F)ccc1N1CCOCC1`, the inhibition is inactive: 22.4%. As for `CCOc1ccc(CCNC(=O)Cn2c(-c3nonc3N)nc3ccccc32)cc1OCC`, the figure is inactive: 10.5%; as for `CCN(CC)CCn1c(NCc2nc3ccccc3n2Cc2ccccc2)nc2ccccc21`, inactive: -90%. Take `CN(C)Cc1ccc(-c2nc3cccc4c3n2CCNC4=O)cc1`: the inhibition was inactive: 17%. The figure for `COc1ccc(-c2ccc3c(c2)[C@@H]2C[C@H](N(C)C(=O)C(C)(C)C)[C@H]([C@H](C)O)C(=O)N2CC3)cc1` is inactive: -2.96%. On to `O=C(Cn1c(CO)nc2ccccc21)Nc1cc(C(F)(F)F)ccc1N1CCOCC1`, for which the inhibition was inactive: -0.9%. As for `Cc1ccc(NC(=O)Cn2c(/C=C/c3ccccc3)nc3ccccc32)cc1C`, the figure is inactive: -13.7%; as for `CCN(C(=O)Cn1c(Cl)nc2c1c(=O)n(C)c(=O)n2C)C1CCCCC1`, inactive: 5.23%.

In the case of `CCCC(=O)Nc1ccc2c(c1)nc1n2CCN(C2CCCCC2)C1`, the inhibition was inactive: 6.14%.

Take `CC(C)[C@H](NC(=O)N1CCn2c1nc1ccccc12)C(=O)N[C@@H](Cc1ccccc1)C(=O)O`: the inhibition is inactive: 13.5%. As to `CCOC(=O)Cn1c(=O)oc2cc(S(=O)(=O)N3CCn4c3nc3ccccc34)ccc21`, the inhibition was inactive: -0.16%. Turning to `O=C(Cn1cnc2ccccc21)N/N=C/c1ccccc1`, the inhibition is inactive: 6.65%. Turning to `Cc1ccc(-c2csc(N3CCC[C@@H]3C(=O)NCCn3c(-c4ccncc4)nc4ccccc43)n2)cc1`, the inhibition was inactive: -21.7%.

Source of the values: PubChem BioAssay AID504357 (The Scripps Research Institute Molecular Screening Center, 2011).
